# AlphaSeq binding of Ab-14 heavy chain variants to a spike HR2 peptide

Target: peptide PDVDLGDISGINAS, taken from heptad repeat 2 (HR2) of SARS-CoV-2 spike.

Ab-14 is the parent antibody, in scFv form: VH, then the linker GGGGSGGGGSGGGGS, then VL. The light chain is unchanged in all variants.
VH: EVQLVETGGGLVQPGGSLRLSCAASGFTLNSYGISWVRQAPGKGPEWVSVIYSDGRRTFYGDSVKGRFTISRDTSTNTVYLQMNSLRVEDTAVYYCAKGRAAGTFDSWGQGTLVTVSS
VL: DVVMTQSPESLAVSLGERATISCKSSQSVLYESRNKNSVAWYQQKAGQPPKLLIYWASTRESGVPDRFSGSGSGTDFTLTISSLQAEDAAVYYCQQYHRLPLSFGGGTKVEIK

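These sequences belong to a second round, designed from the earlier measurements on random variants of the parent. Group labels follow the data file (Ctrl: baseline library sampled from a position-specific scoring matrix, with some repeated check sequences; Rand: our label for a block that the file lists under HC and that is probably the random mutants of the ten best first-round binders; En: ensemble of fine-tuned language models; GP: Gaussian process model; GPLM: also part of the Gaussian process libraries; HC: hill climbing; Gen: genetic algorithm; Gibbs: Gibbs sampling; a sequence that several methods proposed may carry one label only). The assay is AlphaSeq: two haploid yeast populations carry antibody and antigen on their surface. The frequency of each diploid, read from paired DNA barcodes, reflects how well the two displayed proteins bind. Scores were corrected for input abundance and mapped to Kd with protein pairs of known affinity run in the same pool. The assay was run in six technical replicates.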

Variants are written as CDR1, CDR2 and CDR3 of the heavy chain (limits as in the source). Parent: GFTLNSYGIS, VIYSDGRRTFYGDSVK, GRAAGTFDS.
The read-out is the apparent dissociation constant on a log10 scale (nM): the lower, the stronger.
Averages over replicates are reported, and they cover detected replicates only.
"nd" means that the variant was in the library but no mating with the target was seen in that replicate; the authors take this as a sign of poor binding, and no number exists.

| replicates, log10 nM | log10 Kd (nM), mean | empty controls | CDR-H1 | CDR-H2 | CDR-H3 | group |
|---|---|---|---|---|---|---|
| 0.36 0.55 0.42 -0.36 0.31 1.29 | 0.43 | 0 of 18 | GFDIEEYGIS | VIYADGKRAQYADAVK | GENMDMMTY | En_Gibbs |
| nd nd nd nd nd nd | nd | 2 of 18 (1.16) | GDDIDEYGIS | VIYADGHRSQYSEQVK | GYNAGTLDE | En_Gibbs |
| 0.04 0.08 0.24 -0.16 0.10 0.45; 0.38 0.72 0.72 0.40 0.46 0.52 | 0.33 | 0 of 36 | GFTLESYGIS | VIYADGRRTFYGDSVK | GSAAGTFDS | Ctrl+GPLM_Gen |
| 0.26 0.19 -0.65 0.01 -0.17 0.31 | -0.01 | 0 of 18 | GFNLNSYGIS | VIYSDGRRTFYEDSVK | GREAGTFDS | Ctrl |
| nd nd nd nd nd nd | nd | 0 of 18 | GFTLNSYGIS | VIYFDGRRTFYGDSVK | TRAAQTFDS | Ctrl |
| nd 0.04 nd nd nd 0.19 | 0.12 | 0 of 18 | GFDLNEYGIS | VIYADGMRKAYADDVK | GNVAGTFDT | En_Gen |
| nd nd nd nd nd nd | nd | 0 of 18 | GFDLDEYGIS | VIYADGTRKMYLPTFK | GNHGGTFLM | En_Gibbs |
| nd nd nd nd nd nd | nd | 0 of 18 | GFGLDEYGIS | VIYADGFRAYYHDNVK | GFNSDVDIL | En_Gibbs |
| nd nd nd nd nd nd | nd | 0 of 18 | GFDLNEYGIS | VIYADGRRVEYNDKVK | GMLTGTFDQ | En_Gibbs |
| 1.05 -0.37 1.36 0.57 0.46 0.88 | 0.66 | 0 of 18 | GFTLNEYGIS | VIYSDGRRTFYGDSVK | GCIAGTFDA | GP_HC |
| nd nd nd nd 1.04 nd | 1.04 | 0 of 18 | GFNLNSYGIS | VIYSDGRRTFYGDSVK | GMQAGTFDS | GP_Gen |
| -0.43 -0.94 -0.59 nd -0.91 -0.25 | -0.62 | 0 of 18 | GFNLDEYGIS | VIYADGRRTFYSDSVK | GEAGGTFDV | En_HC |
| 0.13 -0.07 -0.02 0.10 0.25 0.51 | 0.15 | 0 of 18 | GFTLNEYGIS | VIYSDGRRTFYGDSVK | GRQAGTFDV | GP_HC |
| nd nd nd nd nd nd | nd | 0 of 18 | GFDLNSQGIS | VIYSDMRRTFYGDSHK | GRAAGWFNS | Rand |
| nd nd nd nd nd nd | nd | 0 of 18 | GITLNSYGSS | VIYSDGRRTFYGDSVK | DAAPGTFDS | Ctrl |
| nd nd nd nd nd nd | nd | 0 of 18 | GFDLNEYGIS | VIYADGMRTAYADSVK | GNEAGTFDQ | En_Gen |
| -0.92 -0.63 -0.35 -0.28 -0.26 -0.79 | -0.54 | 0 of 18 | GFDLNEYGIS | VIYADGVRTAYADKVK | GEVAGTFDV | En_Gen |
| nd nd nd nd nd nd | nd | 0 of 18 | HFTLNSYGIS | VIYSDGRRTFYGDSVK | GRLAGTFDS | Ctrl |
| 1.96 0.24 0.46 0.16 0.81 0.84 | 0.75 | 1 of 18 (1.34) | GFGLNEYGIS | VIYSDGRRTFYGDSVK | GRQAGTFDS | GPLM_Gibbs |
| nd nd 1.53 1.66 nd nd | 1.60 | 0 of 18 | GFTLNSYGIS | VIYSDGRRTFYHDSVK | GRAAGTFDM | Ctrl |
| nd nd nd nd 3.54 nd | 3.54 | 2 of 18 (2.93) | GFQIDEYGIS | VIYADGLRTVYDDAVK | GMDTGLFMD | En_Gibbs |
| nd nd nd nd nd nd | nd | 0 of 18 | GFSLDEYGIS | VIYADGVRQAYQDSVK | GNWHGTMMY | En_Gibbs |
| 0.96 0.26 0.44 -0.31 -0.06 -0.46 | 0.14 | 0 of 18 | GFDLNEYGIS | VIYADGMRTAYSDDVK | GETAGTFDQ | En_Gen |
| nd nd nd nd nd nd | nd | 0 of 18 | GFDLSEYGIS | VIYADGRRASYTDAVK | GEVEGMLDV | En_Gibbs |
| 0.13 -0.25 -0.41 -0.31 -0.57 -0.41 | -0.30 | 0 of 18 | GFDLNEYGIS | VIYADGRRTAYIDSVK | GEIAGTFDV | En_HC |
| nd nd 1.30 2.05 2.20 2.25 | 1.95 | 0 of 18 | GFSLNSYGIS | VIYSDGRRTFYADHVK | GKAAGTFDR | GP_Gibbs |
| -0.52 -0.36 -0.84 -0.81 -0.54 -0.36 | -0.57 | 1 of 18 (1.19) | GFDLNEYGIS | VIYADGMRTVYADSVK | GNVAGTFDI | En_Gen |
| -0.40 -0.03 0.27 -0.16 -0.44 -0.06 | -0.14 | 0 of 18 | GFSLNTYGIS | VIYSDGRRTFYADSVK | GNAAGTFDS | GPLM_Gen |
| -0.07 0.08 -0.77 -1.21 -1.38 -0.23 | -0.60 | 0 of 18 | GFDLNEYGIS | VIYADGMRTVYADSVK | GNTAGTFDI | En_Gen |
| 0.65 0.84 0.94 0.83 0.53 0.79 | 0.76 | 0 of 18 | GFVLNEYGIS | VIYSDGRRTFYGDSVK | GRTAGTFDS | GPLM_Gen |
| 0.20 0.18 0.14 0.04 0.11 0.48 | 0.19 | 2 of 18 (2.65) | GFGLNSYGIS | VIYSDGRRTFYADSVK | GHEAGTFDS | GP_Gibbs |
| 0.80 1.11 0.30 0.24 0.64 0.54 | 0.60 | 2 of 18 (2.43) | GFELNSYGIS | VIYSDGRRTFYADDVK | GRMAGTFDS | GP_Gen |
| -0.64 -1.21 -1.28 -0.93 -0.85 -0.57 | -0.91 | 0 of 18 | GFDLNEYGIS | VIYADGVRTFYADSVK | GQNAGTFDL | En_HC |
| 1.05 0.64 1.42 1.29 1.28 1.66 | 1.22 | 0 of 18 | GFHLNDYGIS | VIYSDGRRTFYIDSVK | GRLAGTFDS | GP_HC |
| 0.72 0.42 0.10 0.85 0.73 0.61 | 0.57 | 0 of 18 | GFDLNSYGIS | VIYSDGRRTFYGDSVK | GRAAGSFRS | GP_HC |
| 0.32 0.40 0.29 0.67 -0.74 0.82 | 0.29 | 0 of 18 | GFQLNQYGIS | VIYSDGRRTFYGDSVK | GRAAGTFDS | GP_HC |
| -0.50 -0.45 -0.36 -0.04 0.07 -0.16 | -0.24 | 0 of 18 | GFSLNEYGIS | VIYSDGQRTFYGDSVK | GRTAGTFDS | GP_Gen |
| nd nd nd nd nd nd | nd | 0 of 18 | GFTLNDYGIS | VIYSDGRRTFYGDSVK | GRQAGTFIS | GPLM_HC |
| nd nd nd -0.87 nd nd | -0.87 | 0 of 18 | GFTLNDYGIS | VIYSDGYRTFYIDSVK | GRAAGTFDS | GP_HC |
| 0.56 0.18 0.03 0.11 0.15 0.43 | 0.24 | 0 of 18 | GFDLNEYGIS | VIYADGKRTFYSDKVK | GNVGGTFDI | En_HC |
| nd 1.35 0.82 nd 1.52 0.53 | 1.05 | 1 of 18 (2.31) | GFNLNSYGIS | VIYSDGRRTFYADPVK | GNAAGTFDN | GP_Gibbs |
| 0.01 -0.18 0.13 -1.01 -0.83 -0.22 | -0.35 | 0 of 18 | GFDLNEYGIS | VIYADGQRTAYADSVK | GHAAGTFDS | En_HC |
| nd nd nd nd nd nd | nd | 0 of 18 | GFDLNSYGIS | VIYSDGRREFYGDSVK | GRASGTFDS | Ctrl |
| -0.14 0.11 0.03 -0.11 0.08 0.10 | 0.01 | 1 of 18 (1.43) | GFDLNEYGIS | VIYADGVRTVYADSVK | GGNAGTFDV | En_Gen |
| 0.33 -0.42 nd -0.13 0.58 0.31 | 0.13 | 0 of 18 | GFSLNSYGIS | VIYSDGRRTFYGDPVK | GITAGTFDS | GP_Gibbs |

For reference, 7 entries of the list once more:

CDR-H1	CDR-H2	CDR-H3	group	replicates, log10 nM	log10 Kd (nM), mean	empty controls
GFDIEEYGIS	VIYADGKRAQYADAVK	GENMDMMTY	En_Gibbs	0.36 0.55 0.42 -0.36 0.31 1.29	0.43	0 of 18
GFDLNEYGIS	VIYADGMRTAYADSVK	GNEAGTFDQ	En_Gen	nd nd nd nd nd nd	nd	0 of 18
GFDLNEYGIS	VIYADGMRKAYADDVK	GNVAGTFDT	En_Gen	nd 0.04 nd nd nd 0.19	0.12	0 of 18
GFDLNEYGIS	VIYADGMRTVYADSVK	GNVAGTFDI	En_Gen	-0.52 -0.36 -0.84 -0.81 -0.54 -0.36	-0.57	1 of 18 (1.19)
GFTLNEYGIS	VIYSDGRRTFYGDSVK	GCIAGTFDA	GP_HC	1.05 -0.37 1.36 0.57 0.46 0.88	0.66	0 of 18
GFGLDEYGIS	VIYADGFRAYYHDNVK	GFNSDVDIL	En_Gibbs	nd nd nd nd nd nd	nd	0 of 18
GFNLDEYGIS	VIYADGRRTFYSDSVK	GEAGGTFDV	En_HC	-0.43 -0.94 -0.59 nd -0.91 -0.25	-0.62	0 of 18

Three control strains display no target. For all heavy chain designs, 1% of the pairings with them gave a signal, with a median of 2.08 and one signal in twenty below 0.84, so weak values seen in few replicates may be background. Also given: how often the same scFv was detected with the empty control strains, with their mean in brackets.
Where one sequence has several entries in the source, the replicates are listed entry by entry, parted by semicolons.
In the paper, a design with two or fewer of six values counts as a poor binder.
The range of this assay differs from that of the first round, and the authors advise against merging the two.

Reference: Li et al. 2023, doi:10.1038/s41467-023-39022-2. File: FLAb, binding data.